Target: Metabotropic glutamate receptor 2 (Homo sapiens, UniProt Q14416)
Assay: Biological Assay: The utility of the compounds in accordance with the present invention as antagonists of metabotropic glutamate receptor activity, in particular mGluR2 activity, may be demonstrated by methodology known in the art. Antagonist constants are determined as follows. The compounds of the present invention were tested in a fluorescence laser imaging plate reader based assay. This assay …
Format: cell-based

Chains of the proteins cited; added tags and fusions are not shown. Lines headed by an entry give the natural chain unless they say otherwise; changes in a name come on top.
UniProt Q14416: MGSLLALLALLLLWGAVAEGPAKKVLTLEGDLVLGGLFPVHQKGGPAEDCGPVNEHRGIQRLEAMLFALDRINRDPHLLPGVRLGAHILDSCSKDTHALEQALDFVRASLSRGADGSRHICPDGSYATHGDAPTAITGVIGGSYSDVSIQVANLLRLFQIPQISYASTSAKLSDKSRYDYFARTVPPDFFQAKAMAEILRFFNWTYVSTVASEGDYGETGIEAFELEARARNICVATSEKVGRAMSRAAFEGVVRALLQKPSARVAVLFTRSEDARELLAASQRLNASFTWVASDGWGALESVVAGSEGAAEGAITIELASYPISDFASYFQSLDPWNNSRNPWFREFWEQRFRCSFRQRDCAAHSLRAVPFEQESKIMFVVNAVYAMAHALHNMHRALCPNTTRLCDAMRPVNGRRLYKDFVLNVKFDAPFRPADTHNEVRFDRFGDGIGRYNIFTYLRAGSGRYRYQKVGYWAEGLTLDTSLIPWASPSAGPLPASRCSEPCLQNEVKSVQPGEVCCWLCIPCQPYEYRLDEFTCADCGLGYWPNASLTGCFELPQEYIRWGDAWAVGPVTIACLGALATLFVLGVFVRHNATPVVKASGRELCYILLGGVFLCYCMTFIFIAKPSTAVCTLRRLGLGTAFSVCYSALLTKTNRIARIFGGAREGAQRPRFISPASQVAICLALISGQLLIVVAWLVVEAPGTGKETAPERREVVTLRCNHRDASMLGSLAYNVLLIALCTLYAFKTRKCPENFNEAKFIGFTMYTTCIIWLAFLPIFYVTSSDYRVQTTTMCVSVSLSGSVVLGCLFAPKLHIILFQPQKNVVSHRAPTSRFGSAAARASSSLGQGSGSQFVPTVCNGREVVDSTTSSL

IC50 [nM] | Compound
11 | C[C@H]1CN[C@H](C(F)(F)F)CN1Cc1ccc2c(-c3ccc(F)cc3)cc(C(N)=O)nc2c1
85 | CC[C@](O)(c1cn(Cc2ccc3c(Cl)cc(C#N)nc3c2)nn1)C(F)(F)F
9 | C[C@H]1CN[C@@H](C(F)(F)F)CN1Cc1ccc2c(-c3ccc(F)cc3)cc(C(N)=O)nc2c1
159 | Cc1ccc2c(-c3ccc(Cl)cc3)cc(C(N)=O)nc2c1
7 | COC(=O)c1cc(-c2ccc(OC)cc2F)c2ccc([C@H](C)Cc3cnc(C)nc3)cc2n1 (single isomer, unassigned)
6 | COC(=O)c1cc(-c2ccc(OC)cc2F)c2ccc([C@@H](C)Cc3cnc(C)nc3)cc2n1 (single isomer, unassigned)
